According to patent US11267812B2 (Mirati Therapeutics, Inc., priority 2016, dated 2022):

Biological target: KRas G12C (Homo sapiens, UniProt P01116, C118S/C51S/C80L/G12C)
Assay: KRas G12C Modification Assay (LCMS detection of covalent adduct)
Format: binding
Details: 5 μM compound, 3 hours
Protocol: Usual assay endpoints were 15, 180 and 1440 minutes.

Compound | POC (normalized percent of control, KRas G12C modification)
C=CC(=O)N1CCN(c2nc(OC[C@@H]3CCCN3C)nc3c2CCN(c2cc(O)cc4ccccc24)C3)CC1 [Example 127, (S)-1-(4-(7-(3-hydroxynaphthalen-1-yl)-2-((1-methylpyrrolidin-2-yl)methoxy)-5,6,7,8-tetrahydropyrido[3,4-d]pyrimidin-4-yl)piperazin-1-yl)prop-2-en-1-one] | C (“C”>50% POC)
C=CC(=O)N1CCN(c2nc(OC[C@H]3CCCN3C)nc3c2CCN(c2cc(O)cc4ccccc24)C3)CC1 [Example 187, (R)-1-(4-(7-(3-hydroxynaphthalen-1-yl)-2-((1-methylpyrrolidin-2-yl)methoxy)-5,6,7,8-tetrahydropyrido[3,4-d]pyrimidin-4-yl)piperazin-1-yl)prop-2-en-1-one] | C (“C”>50% POC)
C=CC(=O)N1CCN(c2nc(OC[C@@H]3CCCN3C)nc3c2CCN(c2cccc4ccccc24)C3)CC1 [Example 200, (S)-1-(4-(2-((1-methylpyrrolidin-2-yl)methoxy)-7-(naphthalen-1-yl)-5,6,7,8-tetrahydropyrido[3,4-d]pyrimidin-4-yl)piperazin-1-yl)prop-2-en-1-one] | C (“C”>50% POC)
